Tests used:
[1] = target: GppNHp-loaded KRAS4b (amino acids 1-169) G12C/C118S protein (Homo sapiens, UniProt P01116, C118S/G12C); assay: Covalent cysteine 12 modification by MALDI-TOF MS, GppNHp-loaded KRAS G12C; format: biochemical; settings: 15 minutes reaction time
[2] = target: Avi-KRAS G12C (1-169) GppNHp/RAF1 RBD-3xFLAG (52-151) (Homo sapiens, UniProt P01116, G12C); assay: biochemical; settings: Raf1-GppNHp-KRAS G12C disruption, Raf1 RBD-KRAS G12C-GppNHp disruption assay IC50
[3] = target: GDP-loaded KRAS4b (amino acids 1-169) G12C/C118S protein (Homo sapiens, UniProt P01116, C118S/G12C); assay: Covalent cysteine 12 modification by MALDI-TOF MS, GDP-loaded KRAS G12C; format: biochemical; settings: 15 minutes reaction time
[4] = compound 95 or later using 1 μM proteins
[5] = compounds 94 or before using 5 μM proteins

Row | Structure (SMILES) | GppNHp-KRAS G12C percent of modification [1, 4] | IC50 [2] | GDP-KRAS G12C percent of modification [3, 4] | GppNHp-KRAS G12C percent of modification [1, 5] | GDP-KRAS G12C percent of modification [3, 5]
1 | C=CC(=O)N1CCN(c2nc(OC[C@]34CCCN3C[C@H](F)C4)nc3c(F)c(-c4ccc(F)c5sc(N)nc45)c(C(F)(F)F)cc23)CC1 [Compound 150] | C (10%≤percent of modification <50%) | 500 to 5000 nM | B (50≤percent of modification <70%) |  | 
2 | C=CC(=O)N1CCN(c2nc(OCC34CCCN3CCC4)nc3c(F)c(-c4ccc(F)c5sc(N)nc45)c(Cl)cc23)CC1 [Compound 67] |  | < 500 nM |  | A (percent of modification ≥70%) | A (percent of modification ≥70%)
3 | CC(Cl)C(=O)N1CC(Nc2ncnc3c(F)c(-c4ccc(F)c5sc(N)nc45)c(Cl)cc23)C1 (stereo not drawn) [Compound 20, 1-[3-[[7-(2-amino-7-fluoro-1,3-benzothiazol-4-yl)-6-chloro-8-fluoro-quinazolin-4-yl]amino]azetidin-1-yl]-2-chloro-propan-1-one] |  | > 20000 nM |  | D (percent of modification <10%) | C (10%≤percent of modification <50%)
4 | C=CC(=O)N1CC(Nc2nc(OCC34CCCN3CCC4)nc3c(F)c(-c4ccc(F)c5sc(N)nc45)c(Cl)cc23)C1 [Compound 49, 1-(3-((7-(2-amino-7-fluorobenzo[d]thiazol-4-yl)-6-chloro-8-fluoro-2-((tetrahydro-1H-pyrrolizin-7a(5H)-yl)methoxy)quinazolin-4-yl)amino)azetidin-1-yl)prop-2-en-1-one] |  | < 500 nM |  | A (percent of modification ≥70%) | A (percent of modification ≥70%)
5 | C=CC(=O)N1CCC[C@@H](N(C)c2nc(OC[C@@]34CCCN3C[C@H](F)C4)nc3c(F)c(-c4ccc(F)c5sc(N)nc45)c(C(F)(F)F)cc23)C1 (atropisomer, axis not shown) [Compound 245] | D (percent of modification <10%) | 500 to 5000 nM | D (percent of modification <10%) |  | 
6 | C=CC(=O)N1CC[C@@H](N(C)c2nc(OCC34CCCN3CCC4)nc3c(F)c(-c4cc(O)cc5ccccc45)c(C(F)(F)F)cc23)C1 [Compound 226] | A (percent of modification ≥70%) | < 500 nM | A (percent of modification ≥70%) |  | 
7 | C=CC(=O)N1[C@H](C)CN(c2nc(OC[C@]34CCCN3C[C@H](F)C4)nc3c(F)c(-c4ccc(F)c5sc(N)nc45)c(C(F)(F)F)cc23)C[C@@H]1C [Compound 215] | C (10%≤percent of modification <50%) | < 500 nM | B (50≤percent of modification <70%) |  | 
8 | C=CC(=O)N1CC(Nc2nc(OCC34CCCN3CCC4)nc3c(F)c(-c4ccc(F)c5sc(N)nc45)c(-c4ccoc4)cc23)C1 [Compound 70, 1-(3-((7-(2-amino-7-fluorobenzo[d]thiazol-4-yl)-8-fluoro-6-(furan-3-yl)-2-((tetrahydro-1H-pyrrolizin-7a(5H)-yl)methoxy)quinazolin-4-yl)amino)azetidin-1-yl)prop-2-en-1-one] |  | < 500 nM |  | A (percent of modification ≥70%) | A (percent of modification ≥70%)
9 | C=CC(=O)N1CC(Nc2nc(OC[C@@H]3C[C@@H](OC)CN3C)nc3c(F)c(-c4ccc(F)c5sc(N)nc45)c(C(F)(F)F)cc23)C1 [Compound 76] |  | < 500 nM |  | A (percent of modification ≥70%) | A (percent of modification ≥70%)
10 | C=CC(=O)N1CC(Nc2nc(OC[C@@H]3C[C@@H](F)CN3C)nc3c(F)c(-c4ccc(F)c5sc(N)nc45)c(Cl)cc23)C1 [Compound 63] |  | < 500 nM |  | A (percent of modification ≥70%) | A (percent of modification ≥70%)
11 | CC#CC(=O)N1CCN(c2nc(OCC34CCCN3CC(F)(F)C4)nc3c(F)c(-c4ccc(F)c5sc(N)nc45)c(C(F)(F)F)cc23)CC1 (stereo not drawn) [Compound 193] | D (percent of modification <10%) | > 20000 nM | C (10%≤percent of modification <50%) |  | 
12 | C=CC(=O)N1CCN(c2nc(OCC34CCCN3CCC4)nc3c(F)c(-c4ccc(F)c5sc(N)nc45)c(C(F)(F)F)cc23)CC1 [Compound 80, 1-(4-(7-(2-amino-7-fluorobenzo[d]thiazol-4-yl)-8-fluoro-2-((tetrahydro-1H-pyrrolizin-7a(5H)-yl)methoxy)-6-(trifluoromethyl)quinazolin-4-yl)piperazin-1-yl)prop-2-en-1-one] |  | < 500 nM |  | A (percent of modification ≥70%) | A (percent of modification ≥70%)
13 | N#CN1CC(Nc2ncnc3c(F)c(-c4ccc(F)c5sc(N)nc45)c(C(F)(F)F)cc23)C1 [Compound 45] |  | < 500 nM |  | A (percent of modification ≥70%) | A (percent of modification ≥70%)

More lines, now with the values ahead:

Row | GppNHp-KRAS G12C percent of modification [1, 4] | IC50 [2] | GDP-KRAS G12C percent of modification [3, 4] | GppNHp-KRAS G12C percent of modification [1, 5] | GDP-KRAS G12C percent of modification [3, 5] | Structure (SMILES)
14 | D (percent of modification <10%) | 5000 to 20000 nM | B (50≤percent of modification <70%) |  |  | C=C(F)C(=O)N1CCN(c2nc(OC[C@@]34CCCN3C[C@H](F)C4)nc3c(F)c(-c4ccc(F)c5sc(N)nc45)c(C(F)(F)F)cc23)CC1 [Compound 186]
15 |  | > 20000 nM |  | D (percent of modification <10%) | D (percent of modification <10%) | CC(C)/C=C(\C#N)C(=O)N1CC(Nc2ncnc3c(F)c(-c4ccc(F)c5sc(N)nc45)c(Cl)cc23)C1 [Compound 78]
16 | C (10%≤percent of modification <50%) | > 20000 nM | A (percent of modification ≥70%) |  |  | C=CC(=O)N1CCN(c2nc(OCC34CCCN3CCC4)nc3c(F)c(-c4ccc(F)c5sc(N)nc45)c(OC)cc23)CC1 [Compound 212]
17 | D (percent of modification <10%) | 5000 to 20000 nM | A (percent of modification ≥70%) |  |  | C=C(F)C(=O)N1CCN(c2nc(OC[C@]34CCCN3C[C@H](F)C4)nc3c(F)c(-c4ccc(F)c5sc(N)nc45)c(C(F)(F)F)cc23)C[C@H]1C [Compound 191]
18 | B (50≤percent of modification <70%) | < 500 nM | A (percent of modification ≥70%) |  |  | C=CC(=O)N1CCC[C@@H](N(C)c2nc(OC[C@@]34CCCN3C[C@H](F)C4)nc3c(F)c(-c4ccc(F)c5sc(N)nc45)c(C(F)(F)F)cc23)C1 (atropisomer, axis not shown) [Compound 244]
19 | D (percent of modification <10%) | 500 to 5000 nM | C (10%≤percent of modification <50%) |  |  | C=CC(=O)N1CC[C@@H](N(C)c2nc(OC[C@@H]3C[C@@H](F)CN3C3CC3)nc3c(F)c(-c4ccc(F)c5sc(N)nc45)c(C(F)(F)F)cc23)C1 [Compound 273]
20 | D (percent of modification <10%) | 5000 to 20000 nM | A (percent of modification ≥70%) |  |  | C=CC(=O)N1CC[C@@H](N(C)c2ncnc3c(F)c(-c4ccc(F)c5sc(N)nc45)c(C(F)(F)F)cc23)C1 [Compound 225]
21 | D (percent of modification <10%) | 500 to 5000 nM | D (percent of modification <10%) |  |  | C=CC(=O)N1CC[C@@H](N(C)c2nc(OC[C@@H]3C[C@@H](F)CN3C)nc3c(F)c(-c4ccc(F)c5sc(N)nc45)c(C(F)(F)F)cc23)C1 (atropisomer, axis not shown) [Compound 232]
22 | C (10%≤percent of modification <50%) | < 500 nM | A (percent of modification ≥70%) |  |  | CC#CC(=O)N1CC(N(C)c2nc(OCC34CCCN3CCC4)nc3c(F)c(-c4ccc(F)c5sc(N)nc45)c(Cl)cc23)C1 [Compound 106]
23 |  | < 500 nM |  | B (50≤percent of modification <70%) | A (percent of modification ≥70%) | C=CC(=O)N1CCC(Nc2nc(OC[C@@H]3CCCN3C)nc3c(F)c(-c4ccc(F)c5sc(N)nc45)c(Cl)cc23)C1 (stereo partly drawn) [Compound 52]
24 |  | > 20000 nM |  | D (percent of modification <10%) | B (50≤percent of modification <70%) | C=CC(=O)NCCNc1nc(C2CCN(C)CC2)nc2c(F)c(-c3ccc(F)c4sc(N)nc34)c(Cl)cc12 [Compound 64]
25 | D (percent of modification <10%) | 500 to 5000 nM | A (percent of modification ≥70%) |  |  | C=CC(=O)N1C[C@H](N(C)c2ncnc3c(F)c(-c4ccc(F)c5sc(N)nc45)c(C(F)(F)F)cc23)C[C@H]1C (atropisomer, axis not shown) [Compound 250]
26 | C (10%≤percent of modification <50%) | < 500 nM | A (percent of modification ≥70%) |  |  | C=CC(=O)N1CCC[C@@H](N(C)c2nc(OC[C@@]34CCCN3C[C@H](F)C4)nc3c(F)c(-c4ccc(F)c5sc(N)nc45)c(Cl)cc23)C1 (atropisomer, axis not shown) [Compound 241]
27 | D (percent of modification <10%) | 5000 to 20000 nM | B (50≤percent of modification <70%) |  |  | C=CC(=O)N1C[C@@H]2C[C@H]1[C@@H]2N(C)c1nc(OC[C@@]23CCCN2C[C@H](F)C3)nc2c(F)c(-c3ccc(F)c4sc(N)nc34)c(C(F)(F)F)cc12 [Compound 282]
